Yeast mating assay B: variants of the scFv Ab-14

Target peptide (SARS-CoV-2 spike, HR2 region): PDVDLGDISGINAS

Each scFv is VH, three GGGGS repeats, VL, as in the parent Ab-14, and differs from it in the CDRs of the heavy chain only.
VH: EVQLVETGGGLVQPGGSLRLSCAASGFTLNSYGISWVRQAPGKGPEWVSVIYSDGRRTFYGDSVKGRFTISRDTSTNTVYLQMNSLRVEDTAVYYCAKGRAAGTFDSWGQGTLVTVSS
VL: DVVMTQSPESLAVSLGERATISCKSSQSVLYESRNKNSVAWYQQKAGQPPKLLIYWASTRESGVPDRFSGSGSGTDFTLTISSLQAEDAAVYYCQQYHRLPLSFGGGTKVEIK

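The variants were designed computationally from a first round of random CDR variants and then made and measured. Their group label is 14H_GPLM_Gen (GPLM: also part of the Gaussian process libraries; Gen: genetic algorithm; a sequence that several methods proposed may carry one label only). The assay is AlphaSeq: two haploid yeast populations carry antibody and antigen on their surface. Pairs that bind mate more often; barcode pairs of the diploids are counted by sequencing. A regression on co-assayed BCL2-family reference pairs converts the normalised counts of each replicate to an apparent Kd. Mating was done six times.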

The parent's heavy chain CDRs are GFTLNSYGIS, VIYSDGRRTFYGDSVK, GRAAGTFDS; each variant's own CDRs replace them letter for letter. Numbers give log10(Kd / nM), so 0 is 1 nM and 3 is 1 µM. Smaller is tighter. Where no diploid with the target was found in that replicate, the entry reads "nd": below detection, most likely a poor binder, though not proof of it. The range of this assay differs from that of the first round, and the authors advise against merging the two.

| CDR-H1 | CDR-H2 | CDR-H3 | replicates, log10 nM | signal with controls |
|---|---|---|---|---|
| GFDLNSYGIS | VIYSDGRRTFYGDSVK | GRTAGTFDV | 0.18 / -0.29 / -0.14 / -0.14 / 0.14 / 0.31 | 0 of 18 |
| GFSLNSYGIS | VIYSDGRRTAYSDSVK | GQAAGTFDS | -0.25 / -0.49 / -0.27 / -0.34 / -0.06 / 0.14 | 1 of 18 (1.69) |
| GFTLNSYGIS | VIYSDGRRTFYADSVK | GVAAGTFDS | 0.60 / 0.75 / 0.98 / 0.50 / 1.03 / 0.94 | 0 of 18 |
| GFSLNEYGIS | VIYSDGRRTFYGDSVK | GNTAGTFDS | 0.71 / 0.19 / -0.09 / 0.13 / 0.18 / 0.50 | 0 of 18 |
| GFDLNSYGIS | VIYSDGRRTFYTDSVK | GRSAGTFDS | 0.55 / 0.64 / 0.95 / 0.26 / 0.54 / 0.77 | 1 of 18 (2.97) |
| GFTLNSYGIS | VIYADGRRTFYGDSVK | GAAAGTFDS | 0.08 / 0.10 / -0.32 / 0.25 / 0.42 / -0.29 | 0 of 18 |
| GFSLNSYGIS | VIYSDGRRTFYADSVK | GREAGIFDS | nd / nd / nd / nd / nd / nd | 0 of 18 |
| GFFLNEYGIS | VIYSDGRRTFYGDSVK | GQAAGTFDS | 1.79 / 2.17 / 1.62 / 1.89 / 1.49 / nd | 0 of 18 |
| GFSLNEYGIS | VIYSDGRRTFYGDSVK | GKAAGTFDN | nd / -0.50 / -0.92 / nd / -0.04 / nd | 0 of 18 |
| GFTLNSYGIS | VIYSDGRRTFYGDQVK | GRTAGTFDS | nd / 0.27 / nd / nd / 1.99 / -0.04 | 0 of 18 |
| GFTLNSYGIS | VIYSDGRRTFYGDSVK | GRVAGTFDK | nd / 0.34 / nd / nd / 1.37 / 0.13 | 0 of 18 |
| GFSLNDYGIS | VIYSDGRRTFYGDWVK | GRTAGTFDS | 0.13 / 0.76 / 0.27 / 0.23 / 0.72 / 0.48 | 0 of 18 |
| GFHLNSYGIS | VIYSDGRRTFYADSVK | GSAAGTFDS | 0.97 / 0.70 / 1.00 / 1.22 / 0.97 / 0.53 | 0 of 18 |
| GFSLNNYGIS | VIYSDGKRTFYGDSVK | GQAAGTFDS | 0.47 / 0.26 / 0.90 / 0.29 / 0.64 / 0.06 | 0 of 18 |
| GFSLNSYGIS | VIYSDGRRTFYSDSVK | GMTAGTFDS | -0.08 / 0.01 / -0.23 / 0.13 / 0.26 / 0.46 | 0 of 18 |
| GFTLNEYGIS | VIYSDGRRTFYGDSVK | GQAAGTFDM | nd / 1.40 / 0.57 / 1.12 / 1.19 / 1.36 | 0 of 18 |
| GFDLNSYGIS | VIYSDGRRTFYKDSVK | GKAAGTFDS | 0.79 / 0.63 / 0.98 / 0.93 / 0.59 / 0.86 | 2 of 18 (1.95) |
| GFDLNSYGIS | VIYSDGRRTFYEDSVK | GRTAGTFDS | -0.28 / -0.25 / -0.36 / -0.65 / -0.26 / -0.30 | 0 of 18 |
| GFTLNAYGIS | VIYSDGRRTFYGDSVK | GRTAGTFDS | nd / -0.11 / 0.70 / nd / nd / nd | 0 of 18 |
| GFHLNSYGIS | VIYSDGRRTFYIDSVK | GQAAGTFDS | nd / nd / nd / nd / nd / nd | 0 of 18 |
| GFSLNEYGIS | VIYSDGRRTFYGDSVK | GRAAGTFDV | 1.46 / nd / 1.46 / 1.36 / 0.79 / 1.88 | 0 of 18 |
| GFSLNSYGIS | VIYSDGRRTFYRDSVK | GRTAGTFDS | 0.70 / 0.52 / -0.01 / 0.79 / 0.96 / 0.65 | 0 of 18 |
| GFTLESYGIS | VIYSDGRRTFYGDSVK | GRQAGTFDT | 1.41 / 1.04 / 0.95 / 1.28 / 1.11 / 1.16 | 1 of 18 (3.48) |
| GFSLNSYGIS | VIYSDGRRTFYGDSVK | GRNAGTFDT | 0.31 / -0.17 / -0.15 / -0.32 / -0.12 / 0.00 | 0 of 18 |
| GFSLNSYGIS | VIYSDGRRTFYADSVK | GSMAGTFDS | 0.25 / 0.17 / -0.12 / 1.17 / 0.33 / 0.87 | 0 of 18 |
| GFSLNSYGIS | VIYSDGRRTFYADSVK | GITAGTFDS | -0.13 / -0.24 / -0.29 / -0.44 / -0.30 / -0.23 | 2 of 18 (1.29) |
| GFSLNSYGIS | VIYSDGRRTFYHDSVK | GRTAGTFDD | 0.39 / 0.96 / 0.50 / 0.40 / 0.58 / 0.74 | 0 of 18 |
| GFDLNSYGIS | VIYSDGRRTFYADSVK | GRKAGTFDS | nd / nd / nd / nd / nd / nd | 0 of 18 |
| GFTLNEYGIS | VIYSDGRRTFYGDSVK | GRAAVTFDT | nd / nd / nd / nd / nd / nd | 0 of 18 |
| GFSLNSYGIS | VIYSDGRRTFYGDSVK | GHAAGTFDS | -0.03 / -0.55 / 0.42 / -0.13 / 0.26 / 0.36 | 0 of 18 |
| GFSLNSYGIS | VIYSDGRRTFYIDSVK | GDAAGTFDS | 0.44 / 0.23 / 0.15 / -0.14 / 0.15 / 0.69 | 0 of 18 |
| PFELNSYGIS | VIYSDGRRTFYADSVK | GRTAGTFDS | 1.42 / 1.69 / 1.05 / 1.54 / 0.75 / 1.53 | 0 of 18 |
| GFSLNSYGIS | VIYSDGRRTFYADSVK | GREAGTFDT | 0.60 / -0.13 / 0.07 / -0.09 / -0.26 / -0.32 | 0 of 18 |
| GFWLNEYGIS | VIYSDGRRTFYSDSVK | GKAAGTFDS | 0.86 / 0.44 / 2.10 / 0.31 / 1.93 / nd | 0 of 18 |
| GFTLNSYGIS | VIYSDGRRTFYGDSVK | GRVAGTFDV | 1.31 / 0.87 / 1.25 / 1.52 / 0.95 / 0.85 | 1 of 18 (2.11) |
| GFTLESYGIS | VIYSDGRRTFYADAVK | GRAAGTFDS | nd / nd / nd / nd / nd / nd | 0 of 18 |
| GFSLNSYGIS | VIYSDGRRTFYADHVK | GNAAGTFDS | -0.19 / 0.76 / 0.26 / 0.25 / 0.69 / 0.59 | 0 of 18 |
| GFELNSYGIS | VIYSDGRRTFYGDSVK | GREAGTFDS | nd / 0.05 / nd / 1.88 / 0.62 / 0.26 | 0 of 18 |
| GFDLNTYGIS | VIYSDGRRTFYADSVK | GRTAGTFDS | -0.63 / -0.52 / -0.82 / -0.80 / -0.80 / -0.07 | 0 of 18 |
| GFSLNSYGIS | VIYSDGRRTFYADSVK | GHAAGTFDA | 0.31 / 0.48 / 0.11 / 0.25 / 0.06 / 0.51 | 1 of 18 (2.16) |
| GFTLNSYGIS | VIYADGRRTFYGDRVK | GEAAGTFDS | 0.28 / 0.19 / -0.29 / -0.08 / 0.05 / 0.17 | 1 of 18 (2.74) |
| GFSLNEYGIS | VIYSDGRRTFYGDSVK | GNAAGTFDS | nd / 0.28 / 1.02 / -0.31 / 0.79 / -0.08 | 0 of 18 |

Picked from the list: the 6 lowest averages where every replicate gave a value.

{"CDR-H1": "GFDLNTYGIS", "CDR-H2": "VIYSDGRRTFYADSVK", "CDR-H3": "GRTAGTFDS", "replicates, log10 nM": "-0.63 / -0.52 / -0.82 / -0.80 / -0.80 / -0.07", "signal with controls": "0 of 18"}
{"CDR-H1": "GFDLNSYGIS", "CDR-H2": "VIYSDGRRTFYEDSVK", "CDR-H3": "GRTAGTFDS", "replicates, log10 nM": "-0.28 / -0.25 / -0.36 / -0.65 / -0.26 / -0.30", "signal with controls": "0 of 18"}
{"CDR-H1": "GFSLNSYGIS", "CDR-H2": "VIYSDGRRTFYADSVK", "CDR-H3": "GITAGTFDS", "replicates, log10 nM": "-0.13 / -0.24 / -0.29 / -0.44 / -0.30 / -0.23", "signal with controls": "2 of 18 (1.29)"}
{"CDR-H1": "GFSLNSYGIS", "CDR-H2": "VIYSDGRRTAYSDSVK", "CDR-H3": "GQAAGTFDS", "replicates, log10 nM": "-0.25 / -0.49 / -0.27 / -0.34 / -0.06 / 0.14", "signal with controls": "1 of 18 (1.69)"}
{"CDR-H1": "GFSLNSYGIS", "CDR-H2": "VIYSDGRRTFYGDSVK", "CDR-H3": "GRNAGTFDT", "replicates, log10 nM": "0.31 / -0.17 / -0.15 / -0.32 / -0.12 / 0.00", "signal with controls": "0 of 18"}
{"CDR-H1": "GFSLNSYGIS", "CDR-H2": "VIYSDGRRTFYADSVK", "CDR-H3": "GREAGTFDT", "replicates, log10 nM": "0.60 / -0.13 / 0.07 / -0.09 / -0.26 / -0.32", "signal with controls": "0 of 18"}

As a blank, each scFv also met three strains without target: over all heavy chain designs, 1% of these pairings were detected, typically at 2.08 and seldom below 0.84. Also given: how often the same scFv was detected with the empty control strains, with their mean in brackets. The authors averaged sequences with at least three values out of six and counted those with two or fewer as poor binders.

Values reported by Li et al. 2023, doi:10.1038/s41467-023-39022-2 (FLAb copy).